Measurements published in patent publication US20260207585A1, “METHODS AND COMPOSITIONS FOR THE TREATMENT OF PARKINSON'S DISEASE, HUNTINGTON'S DISEASE, AMYOTROPHIC LATERAL SCLEROSIS, AND LEARNING DISORDERS” (Cedars-Sinai Medical Center, priority 2022, published 2026).
Positions count from the first letter of the chain named.

Key:
Type in all cases: biochemical
Conditions in all cases: control compound; substrate Nucleosomes 0.05 mg/mL
NSD2 = molecular target: T1, NSD2 (Homo sapiens, UniProt O96028); assay: Methyltransferase inhibition panel: NSD2
T1 sequence (O96028 1-1365): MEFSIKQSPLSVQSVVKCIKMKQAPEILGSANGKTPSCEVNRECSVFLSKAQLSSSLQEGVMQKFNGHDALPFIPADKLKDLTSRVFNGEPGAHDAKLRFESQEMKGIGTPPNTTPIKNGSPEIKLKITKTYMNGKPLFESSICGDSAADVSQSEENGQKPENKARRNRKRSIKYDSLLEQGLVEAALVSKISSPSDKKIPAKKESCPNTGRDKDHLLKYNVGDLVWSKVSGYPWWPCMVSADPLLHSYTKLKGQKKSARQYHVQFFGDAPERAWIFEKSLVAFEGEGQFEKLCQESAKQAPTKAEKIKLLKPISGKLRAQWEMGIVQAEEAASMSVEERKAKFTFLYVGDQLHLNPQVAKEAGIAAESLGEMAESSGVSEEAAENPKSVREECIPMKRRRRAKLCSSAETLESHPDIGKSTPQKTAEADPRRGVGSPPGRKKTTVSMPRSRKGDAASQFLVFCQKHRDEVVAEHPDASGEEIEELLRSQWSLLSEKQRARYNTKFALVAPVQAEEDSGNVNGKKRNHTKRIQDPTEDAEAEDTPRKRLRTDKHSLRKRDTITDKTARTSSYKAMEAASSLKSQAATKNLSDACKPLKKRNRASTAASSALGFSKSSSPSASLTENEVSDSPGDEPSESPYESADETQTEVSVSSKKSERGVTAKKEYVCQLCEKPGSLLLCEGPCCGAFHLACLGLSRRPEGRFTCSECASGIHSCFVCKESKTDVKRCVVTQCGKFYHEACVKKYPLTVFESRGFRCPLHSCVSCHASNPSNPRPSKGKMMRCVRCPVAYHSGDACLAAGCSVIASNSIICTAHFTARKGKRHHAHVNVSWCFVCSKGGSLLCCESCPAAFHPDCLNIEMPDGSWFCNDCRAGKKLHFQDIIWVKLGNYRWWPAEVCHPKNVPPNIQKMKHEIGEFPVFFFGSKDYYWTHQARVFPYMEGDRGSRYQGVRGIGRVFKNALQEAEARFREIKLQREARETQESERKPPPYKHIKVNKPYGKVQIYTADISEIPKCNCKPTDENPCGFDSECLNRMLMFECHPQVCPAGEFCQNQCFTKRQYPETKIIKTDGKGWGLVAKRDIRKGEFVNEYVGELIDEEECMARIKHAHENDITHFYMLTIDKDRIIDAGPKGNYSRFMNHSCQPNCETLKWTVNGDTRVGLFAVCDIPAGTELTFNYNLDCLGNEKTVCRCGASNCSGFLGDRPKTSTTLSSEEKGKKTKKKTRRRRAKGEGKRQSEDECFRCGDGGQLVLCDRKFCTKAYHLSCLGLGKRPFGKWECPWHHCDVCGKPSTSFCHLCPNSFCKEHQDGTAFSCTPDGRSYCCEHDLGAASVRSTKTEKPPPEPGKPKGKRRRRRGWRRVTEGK
Procedure: (§1) The ability of ETP69 to inhibit methyltransferases was tested.

NSD2 (T1150A) = molecular target: T2, NSD2 (T1150A) (Homo sapiens, UniProt O96028, T1150A); assay: Methyltransferase inhibition panel: NSD2 (T1150A)
T2 sequence (O96028 1-1365 T1150A): T1 sequence (O96028 1-1365) with T1150A
Procedure: as §1

NSD2 (E1099K) = molecular target: T3, NSD2 (E1099K) (Homo sapiens, UniProt O96028, E1099K); assay: Methyltransferase inhibition panel: NSD2 (E1099K)
T3 sequence (O96028 1-1365 E1099K): T1 sequence (O96028 1-1365) with E1099K
Procedure: as §1

Nc1ncnc2c1ncn2[C@@H]1O[C@H](CSCC[C@H](N)C(=O)O)[C@@H](O)[C@H]1O [SAH, reference compound]
IC50 (NSD2): 3360 nM
IC50 (NSD2 (T1150A)): 472 nM
IC50 (NSD2 (E1099K)): 1580 nM
